Assay [1] concerns the target T1, PARP-1 (Homo sapiens, UniProt P09874). In words: SPR dissociation kinetics of PARP-1 from SSB-DNA. It is filed as binding.
In assay [2] the target is T1, PARP-1. The assay can be described thus: Classification of PARPi by allosteric effects. To be noted: based on HXMS and DNA binding studies.
Assay [3] addresses T1, PARP-1. In words: HXMS of WT PARP-1/SSB-DNA complex. To be noted: PARP-1/SSB-DNA complex with versus without inhibitor.
Assay [4] addresses T1, PARP-1. In words: FP DNA binding affinity of PARP-1 for SSB-DNA.

The chains behind the UniProt entries cited, without tags or fusion partners.
UniProt P09874, whole entry: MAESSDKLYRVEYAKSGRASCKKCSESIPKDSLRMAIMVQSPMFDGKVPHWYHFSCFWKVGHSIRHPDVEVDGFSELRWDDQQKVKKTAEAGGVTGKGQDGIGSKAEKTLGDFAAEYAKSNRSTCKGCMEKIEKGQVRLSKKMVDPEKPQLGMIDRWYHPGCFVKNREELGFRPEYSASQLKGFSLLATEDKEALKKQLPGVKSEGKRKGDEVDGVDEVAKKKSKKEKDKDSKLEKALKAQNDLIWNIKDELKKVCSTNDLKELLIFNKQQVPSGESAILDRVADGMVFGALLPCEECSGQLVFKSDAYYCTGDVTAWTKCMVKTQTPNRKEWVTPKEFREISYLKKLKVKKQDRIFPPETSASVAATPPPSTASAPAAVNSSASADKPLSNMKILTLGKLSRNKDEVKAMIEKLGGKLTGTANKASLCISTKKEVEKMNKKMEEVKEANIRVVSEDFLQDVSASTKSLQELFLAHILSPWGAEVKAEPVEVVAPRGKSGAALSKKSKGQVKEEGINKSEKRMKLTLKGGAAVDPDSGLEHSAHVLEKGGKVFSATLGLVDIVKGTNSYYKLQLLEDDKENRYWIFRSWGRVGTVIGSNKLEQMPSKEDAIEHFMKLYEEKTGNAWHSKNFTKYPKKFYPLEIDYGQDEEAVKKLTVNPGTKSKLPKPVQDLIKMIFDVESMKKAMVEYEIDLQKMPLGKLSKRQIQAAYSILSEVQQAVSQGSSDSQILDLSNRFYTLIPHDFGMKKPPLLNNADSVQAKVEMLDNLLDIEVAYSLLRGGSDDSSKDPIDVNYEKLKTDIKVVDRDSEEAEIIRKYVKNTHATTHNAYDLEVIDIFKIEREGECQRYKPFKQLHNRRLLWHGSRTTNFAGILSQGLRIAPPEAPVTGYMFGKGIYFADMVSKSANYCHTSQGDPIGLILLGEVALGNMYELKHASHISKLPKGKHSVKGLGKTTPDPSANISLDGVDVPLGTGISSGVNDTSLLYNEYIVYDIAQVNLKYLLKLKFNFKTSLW

For the compound `Cn1ncnc1[C@H]1c2n[nH]c(=O)c3cc(F)cc(c23)N[C@@H]1c1ccc(F)cc1` [talazoparib], at PARP-1 [1], the “influence on dissociation (kd) of PARP-1 from a DNA break (in words)” value is given as “slowed release to a smaller extent”. The “PARPi type by allosteric effect” value on PARP-1 [2] is reported as “Type II”. Also, the “allosteric effect on PARP-1 (HX changes)” value on PARP-1 [3] was “minor increases in exchange in the helical domain (HD) in the αC and αF helices”. At PARP-1 [4], the “influence on PARP-1 SSB DNA binding affinity (in words)” value is given as “only a small increase in affinity”.

Source of the values: PMC7347020 (Science (New York, N.Y.), 2020).
